Like-named read-outs stand apart in the source and are kept apart here.
Assays:
[1] = single-electron reduction midpoint potential, pH 7.0; cited from earlier work
MH22a cells [2] = conditions: read-out: MH22a cL50; previous data; cited from earlier work
HCT-116 cells [3] = conditions: read-out: HCT-116 GI50; previous data; cited from earlier work
MH22a cells [4] = assay: Cytotoxicity in MH22a cells (Trypan blue, cell counting); conditions: for IC50: read-out: cL50 MH22a, concentration causing 50% cell death, 24 h
[5] = test system: TrxR in the lysates of MH22a and HCT-116 cells; assay: TrxR activity in cell lysates; conditions: 2.0 µM, 20 min incubation with NADPH
TrxR = conditions: A549 cells; 10 µM, 4 h; cited from earlier work
GR = conditions: Various human cervical carcinoma cells; 20 µM, 0.5 h; cited from earlier work
[6] = test system: GR in the lysates of MH22a and HCT-116 cells; assay: GR activity in cell lysates; conditions: 10 µM compound, t = 0 vs 20 min incubation with NADPH; 37 °C
HCT-116 cells [7] = assay: Growth inhibition of HCT-116 cells (crystal violet)
[8] = Single-electron reduction potential at pH 7.0 (E^1_7); conditions: calculated from log kcat/Km(avge) of P-450R and ADR/ADX reactions by Equation (A1)
[9] = Reaction of nitroaromatic compounds with reduced glutathione; conditions: GSH 2.0–10.0 mM, pH 7.0, 25 °C
[10] = test system: TrxRs (human TrxR2 and rat TrxR1); assay: Stimulation of NADPH:oxidase activity of TrxRs ('subversive substrate' action); conditions: 100 µM compound
[11] = target: human glutathione reductase (HGR) (Homo sapiens, UniProt P00390); assay: Reduction of nitroaromatics by human glutathione reductase (NADPH:oxidase activity); conditions: 100 µM compound; 0.04 s^−1 without compound
MH22a cells [12] = assay: Modulation of cytotoxicity in MH22a cells by antioxidants, dicoumarol and cytochrome P-450 inhibitors; conditions: compound 2.0 µM

The chains behind the UniProt entries cited, without tags or fusion partners. Residues count along the entry.
UniProt P00390, 44-522 limits assumed: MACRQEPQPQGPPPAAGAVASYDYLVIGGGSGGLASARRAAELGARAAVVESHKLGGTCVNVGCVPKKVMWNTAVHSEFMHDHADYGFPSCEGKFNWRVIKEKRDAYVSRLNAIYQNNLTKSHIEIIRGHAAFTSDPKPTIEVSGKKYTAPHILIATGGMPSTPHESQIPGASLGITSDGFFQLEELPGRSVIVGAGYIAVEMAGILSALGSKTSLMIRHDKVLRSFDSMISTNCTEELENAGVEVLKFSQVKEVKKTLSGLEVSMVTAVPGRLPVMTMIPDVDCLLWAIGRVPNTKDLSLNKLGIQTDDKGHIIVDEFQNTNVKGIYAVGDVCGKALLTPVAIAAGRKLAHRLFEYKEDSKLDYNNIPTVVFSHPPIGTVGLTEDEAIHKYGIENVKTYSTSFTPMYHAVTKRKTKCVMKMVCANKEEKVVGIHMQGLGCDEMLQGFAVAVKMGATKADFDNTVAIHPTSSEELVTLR

Compound	E^1_7 [1] [V]	IC50 (MH22a cells [2]) [µM]	GI50 (HCT-116 cells [3]) [µM]	IC50 (MH22a cells [4]) [µM]	also measured
O=[N+]([O-])c1ccc(C=NO)s1	−0.280	145	20	118	
O=[N+]([O-])c1cccs1	−0.390	341			
auranofin					suppression of the rate of DTNB reduction in cell lysates [5]: ~ 95%
O=[N+]([O-])c1ccc([N+](=O)[O-])cc1	−0.255	12	40		
O=[N+]([O-])c1ccc(/C=N/O)o1	−0.255	40.5	70		
2-Nitrothiophene-5-carboxymorpholide	−0.305	82			
O=[N+]([O-])c1ccc2c(c1)S(=O)(=O)C=C2				1.8	Residual Activity (%) TrxR (TrxR): 25%; Residual Activity (%) GR (GR): 30–50%; time-dependent inhibition of GR in cell lysates [6]: more pronounced; cytotoxicity greater than expected from redox cycling activity (HCT-116 cells [7]): at least 10 fold; E^1_7(calc.) [8]: −0.304 V; cytotoxicity greater than expected from redox cycling activity (MH22a cells [4]; MH22a cells): at least 10 fold; second-order rate constant of reaction with GSH [9]: 1.1 ± 0.1 M⁻¹ s⁻¹; increase of NADPH:oxidase activity of TrxRs [10]: 2–2.5 times; NADPH:oxidase activity of HGR in the presence of compound [11]: 0.08 to 0.09 s⁻¹; Cell Viability (%) Additions: None (MH22a cells [12]): 50.3 ± 5.5%
O=Cc1ccc([N+](=O)[O-])s1	−0.260	42			
O=C1CN(/N=C/c2ccc([N+](=O)[O-])o2)C(=O)N1	−0.255	387	60	320	

From article PMC10419047, “Enzymatic Redox Properties and Cytotoxicity of Irreversible Nitroaromatic Thioredoxin Reductase Inhibitors in Mammalian Cells” (2023)
